The record followed here is article PMC9206510, “4′-Fluorouridine is an oral antiviral that blocks respiratory syncytial virus and SARS-CoV-2 replication” (Science (New York, N.y.), 2021).

Holding throughout (assay type): cell-based, respiratory syncytial virus
The subject of experiment [1] is recRSV-A2line19F-[FireSMASh]. The following applies: 10 μM 4′-FlU; not reversed by purines.
For experiment [2], the system named is recRSV-A2line19F-[FireSMASh]. The experiment can be described thus: recRSV-A2line19F-[FireSMASh] dose response inhibition on primary HAE cells.
For experiment [3], the system named is recRSV-A2line19F-[FireSMASh]. As to the kind of experiment: microbe, parasite or virus in culture.

A word on the EC50: it is the concentration giving half of the maximal effect. For `O=c1ccn([C@@H]2O[C@](F)(CO)[C@@H](O)[C@H]2O)c(=O)[nH]1` [4′-FlU, 4′-fluorouridine], the “antiviral effect on addition of excess exogenous pyrimidines (cytidine and uridine)” value in experiment [1] is listed as “dose-dependently reversed”. In experiment [2] (primary HAE cells, RSV), the “selectivity index (SI = EC50/CC50)” value is given as not below 1877. The “increased anti-RSV potency relative to that on HEp-2 cells” value in experiment [2] (primary HAE from two donors) is reported as not below 17 fold. In experiment [3], the “antiviral efficacy by confocal microscopy” value is on record as “near-sterilizing antiviral efficacy”. Besides, in experiment [3] (human respiratory syncytial virus, read-out: EC50, apical virus shedding), the EC50 came to 55 nM.
